This is an account of results in US20040210041A1.

Amino acid sequences for entries named in this document (tags omitted). Residues count along the entry.
UniProt P35968, 20-1356: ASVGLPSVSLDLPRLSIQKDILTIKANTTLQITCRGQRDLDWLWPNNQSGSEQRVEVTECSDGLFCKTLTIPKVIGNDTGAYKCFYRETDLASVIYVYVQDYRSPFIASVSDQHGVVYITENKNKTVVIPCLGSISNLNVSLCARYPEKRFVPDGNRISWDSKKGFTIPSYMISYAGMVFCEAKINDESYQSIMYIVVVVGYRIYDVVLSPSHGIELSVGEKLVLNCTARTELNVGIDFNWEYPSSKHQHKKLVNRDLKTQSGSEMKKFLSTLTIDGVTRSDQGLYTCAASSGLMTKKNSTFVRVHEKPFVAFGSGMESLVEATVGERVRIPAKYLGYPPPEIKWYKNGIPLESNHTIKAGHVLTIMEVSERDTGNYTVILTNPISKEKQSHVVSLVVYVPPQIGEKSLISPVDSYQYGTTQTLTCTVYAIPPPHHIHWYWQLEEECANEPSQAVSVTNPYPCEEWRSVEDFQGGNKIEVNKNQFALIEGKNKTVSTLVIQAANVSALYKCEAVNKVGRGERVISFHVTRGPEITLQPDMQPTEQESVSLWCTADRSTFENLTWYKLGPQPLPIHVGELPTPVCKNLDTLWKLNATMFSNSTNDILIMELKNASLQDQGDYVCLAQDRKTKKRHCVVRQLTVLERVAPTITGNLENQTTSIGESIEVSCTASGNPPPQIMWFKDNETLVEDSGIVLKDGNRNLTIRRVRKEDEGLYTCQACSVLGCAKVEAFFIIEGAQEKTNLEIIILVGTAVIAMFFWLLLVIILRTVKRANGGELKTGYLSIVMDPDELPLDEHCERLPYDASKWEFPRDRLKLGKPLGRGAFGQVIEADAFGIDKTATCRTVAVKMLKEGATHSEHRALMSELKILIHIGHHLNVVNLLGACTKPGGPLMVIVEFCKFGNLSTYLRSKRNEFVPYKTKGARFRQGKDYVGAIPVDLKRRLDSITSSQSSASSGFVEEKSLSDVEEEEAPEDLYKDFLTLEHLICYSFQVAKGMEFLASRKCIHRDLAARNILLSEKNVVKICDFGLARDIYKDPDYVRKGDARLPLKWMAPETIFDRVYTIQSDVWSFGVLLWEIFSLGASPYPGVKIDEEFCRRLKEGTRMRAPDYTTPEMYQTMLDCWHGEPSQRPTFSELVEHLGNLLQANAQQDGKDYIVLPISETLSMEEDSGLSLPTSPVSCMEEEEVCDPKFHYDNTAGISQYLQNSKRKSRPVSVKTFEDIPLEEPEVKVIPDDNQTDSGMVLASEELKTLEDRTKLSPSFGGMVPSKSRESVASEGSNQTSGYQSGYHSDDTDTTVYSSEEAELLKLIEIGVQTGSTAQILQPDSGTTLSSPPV

The target in assay [1] is KDR (VEGFR-2), full-length receptor on cells (human), P35968. In words: saturation binding, peptide/neutravidin-HRP complex on KDR-transfected 293H cells, mock subtracted. The note with it: remark: other sources report otherwise.
In assay [2] the target is KDR (VEGFR-2), full-length receptor on cells (human) (UniProt P35968). Nature of the assay: saturation binding, peptide/neutravidin-HRP complex on KDR-transfected 293H cells.

With AGPKWCEEDWYYCMITGTGGGK (here or on the partner: Ac-; C-terminal Lys(Biotin-JJ)-NH2; disulfide) [P5-XB/neutravidin HRP complex (tetrameric)], in assay [1], the Kd turned out to be 14.9 nM.

B1: P12-F-XB (neutravidin HRP complex) (peptide)
peptide: AGPTWCEDDWYYCWLFGTK
modifications: Ac-; J (8-amino-3,6-dioxaoctanoyl) between Thr18 and the C-terminal Lys; Lys(Biotin-JJ)-NH2
In assay [2], B1 had a dissociation constant Kd of 3.02 nM. That is a single-digit nanomolar value.
